Reference: ChEMBL document CHEMBL1139353, “Discovery of a new class of potential multifunctional atypical antipsychotic agents targeting dopamine D3 and serotonin 5-HT1A and 5-HT2A receptors: design, synthesis, and effects on behavior” (J Med Chem, 2009)

The chains behind the UniProt entries cited, without tags or fusion partners.
UniProt P14416, whole entry: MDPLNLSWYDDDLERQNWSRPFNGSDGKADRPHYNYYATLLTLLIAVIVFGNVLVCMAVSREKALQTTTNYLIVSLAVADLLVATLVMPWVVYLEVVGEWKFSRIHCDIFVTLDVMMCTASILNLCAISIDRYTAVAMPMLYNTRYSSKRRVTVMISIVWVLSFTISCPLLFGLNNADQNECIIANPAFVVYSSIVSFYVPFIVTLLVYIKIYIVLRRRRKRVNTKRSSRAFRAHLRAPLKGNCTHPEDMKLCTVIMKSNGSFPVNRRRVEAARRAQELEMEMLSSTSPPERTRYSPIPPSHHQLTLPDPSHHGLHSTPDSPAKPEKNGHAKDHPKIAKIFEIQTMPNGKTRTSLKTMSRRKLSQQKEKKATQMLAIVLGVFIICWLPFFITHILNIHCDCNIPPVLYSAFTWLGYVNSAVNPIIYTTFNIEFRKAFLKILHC
UniProt P18901, whole entry: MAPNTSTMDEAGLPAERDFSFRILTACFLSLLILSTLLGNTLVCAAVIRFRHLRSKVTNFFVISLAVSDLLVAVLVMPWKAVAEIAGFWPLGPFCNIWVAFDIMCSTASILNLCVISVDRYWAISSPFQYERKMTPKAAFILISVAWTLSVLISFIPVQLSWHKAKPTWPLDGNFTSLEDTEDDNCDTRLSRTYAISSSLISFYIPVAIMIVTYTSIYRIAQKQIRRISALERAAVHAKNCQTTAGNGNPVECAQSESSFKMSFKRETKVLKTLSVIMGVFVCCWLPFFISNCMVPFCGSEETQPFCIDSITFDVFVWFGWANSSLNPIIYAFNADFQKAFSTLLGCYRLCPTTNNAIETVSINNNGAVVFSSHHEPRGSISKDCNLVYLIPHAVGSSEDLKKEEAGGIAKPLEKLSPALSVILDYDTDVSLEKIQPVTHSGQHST

Legend:
[1] = target: T1, D(2) dopamine receptor (Homo sapiens, UniProt P14416); assay: Antagonist activity at human dopamine D2L receptor expressed in CHO cells by [35S]GTPgammaS binding assay; format: functional, cell-based
[2] = target: T1, D(2) dopamine receptor; assay: Antagonist activity at human dopamine D2S receptor expressed in CHO cells by [35S]GTPgammaS binding assay; format: functional, cell-based
[3] = target: D(1A) dopamine receptor (Rattus norvegicus, UniProt P18901)

| IC50 [1] | IC50 [2] | Structure (SMILES) | Ki [3] |
| --- | --- | --- | --- |
| 584 nM | 1240 nM | Cc1cccc(N2CCN(CCCCNC(=O)c3cc4ccccc4o3)CC2)c1 | – |
| – | – | Cc1nc2n(c(=O)c1CCN1CCC(c3noc4cc(F)ccc34)CC1)CCCC2 [RISPERIDONE] | 50 nM |
